Measured values: ChEMBL document CHEMBL1129585, “Synthesis and biological activity of conformationally restricted analogs of milnacipran: (1S,2R)-1-phenyl-2-[(S)-1-aminopropyl]-N,N-diethylcyclopropanecarboxami de, an efficient noncompetitive N-methyl-D-aspartic acid receptor antagonist” (J Med Chem, 1996)

Species: Rattus norvegicus
Assay: Ratio of 5 HT inhibition to NMDA receptor binding

`CCN(CC)C(=O)[C@@]1(c2ccccc2)C[C@H]1CN` [LEVOMILNACIPRAN] was tested. Which Selectivity index did it give?
The Selectivity index was 0.0013.
